{"sequences": {"note": "By UniProt entry, the sequences of proteins in these tests, tags left out.", "UniProt P10635, whole entry": "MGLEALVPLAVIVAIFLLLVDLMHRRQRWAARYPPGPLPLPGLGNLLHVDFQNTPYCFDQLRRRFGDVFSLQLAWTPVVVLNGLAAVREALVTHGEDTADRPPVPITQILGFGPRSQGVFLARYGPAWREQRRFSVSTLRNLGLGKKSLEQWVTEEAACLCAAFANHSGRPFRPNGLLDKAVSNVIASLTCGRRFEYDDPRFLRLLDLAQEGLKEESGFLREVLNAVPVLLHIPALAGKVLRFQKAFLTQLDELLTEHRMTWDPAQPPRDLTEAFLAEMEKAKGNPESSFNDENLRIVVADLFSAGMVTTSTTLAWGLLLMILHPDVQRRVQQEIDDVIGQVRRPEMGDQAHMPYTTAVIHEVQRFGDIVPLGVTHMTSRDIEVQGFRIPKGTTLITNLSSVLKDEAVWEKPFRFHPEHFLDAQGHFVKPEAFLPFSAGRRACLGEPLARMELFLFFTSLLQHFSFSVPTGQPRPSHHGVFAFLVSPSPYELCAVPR", "UniProt P33261, whole entry": "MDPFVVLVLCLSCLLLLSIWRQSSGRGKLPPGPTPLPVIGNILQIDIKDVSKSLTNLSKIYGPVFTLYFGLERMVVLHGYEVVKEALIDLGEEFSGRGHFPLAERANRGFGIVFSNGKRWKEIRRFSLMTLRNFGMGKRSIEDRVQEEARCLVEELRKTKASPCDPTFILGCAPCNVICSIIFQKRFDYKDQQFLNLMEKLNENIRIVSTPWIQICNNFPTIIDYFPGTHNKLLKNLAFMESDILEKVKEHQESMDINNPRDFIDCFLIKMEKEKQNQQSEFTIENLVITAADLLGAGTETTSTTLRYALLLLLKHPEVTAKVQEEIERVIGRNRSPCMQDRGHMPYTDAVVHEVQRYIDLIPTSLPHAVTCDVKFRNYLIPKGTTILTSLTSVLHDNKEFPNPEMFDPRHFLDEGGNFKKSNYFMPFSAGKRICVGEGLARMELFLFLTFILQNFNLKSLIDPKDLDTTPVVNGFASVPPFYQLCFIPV", "UniProt P11712, whole entry": "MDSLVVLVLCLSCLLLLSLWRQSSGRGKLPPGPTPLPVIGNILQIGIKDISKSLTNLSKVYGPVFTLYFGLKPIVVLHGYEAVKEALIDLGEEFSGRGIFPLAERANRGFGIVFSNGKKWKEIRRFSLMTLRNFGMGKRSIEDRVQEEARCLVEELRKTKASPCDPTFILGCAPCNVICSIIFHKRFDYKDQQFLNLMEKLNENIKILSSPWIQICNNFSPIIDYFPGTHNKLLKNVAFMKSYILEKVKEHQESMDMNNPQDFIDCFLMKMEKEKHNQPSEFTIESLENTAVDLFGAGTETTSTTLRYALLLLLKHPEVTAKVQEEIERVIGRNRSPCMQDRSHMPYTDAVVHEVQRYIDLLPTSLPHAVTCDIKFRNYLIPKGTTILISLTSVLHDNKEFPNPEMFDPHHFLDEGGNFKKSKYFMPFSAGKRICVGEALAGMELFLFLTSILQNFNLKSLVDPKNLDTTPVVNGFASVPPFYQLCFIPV"}, "source": "paper PMC6941357", "about": "“An in vitro toolbox to accelerate anti-malarial drug discovery and development” (Malaria Journal, 2020)", "key": {"CYP2D6": {"target": "CYP2D6 (Homo sapiens, UniProt P10635)", "details": "microsomes"}, "[1]": {"assay": "Blood to plasma partitioning", "assay_type": "in vitro ADME", "details": "human, whole blood, pH 7.4, human whole blood, 37 °C; read-out: B/P (whole blood to plasma partitioning ratio)"}, "[2]": {"assay": "Bidirectional permeability across Caco-2 cell monolayers", "details": "human"}, "CYP2C19": {"target": "CYP2C19 (Homo sapiens, UniProt P33261)", "details": "microsomes"}, "CYP2C9": {"target": "CYP2C9 (Homo sapiens, UniProt P11712)", "details": "microsomes"}}}
{"smiles": "CC(C)(N)CNC(=O)C[C@H]1CC[C@]2(CC1)OO[C@]1(O2)C2CC3CC(C2)CC1C3", "note": "[OZ277, Arterolane]", "values": [{"measurement": "CYP2D6 % inhibition at max conc", "setting": "CYP2D6", "result": "nmi"}, {"measurement": "blood plasma ratio at 1000 ng/mL", "setting": "[1]", "result": "1.1 ± 0.1"}, {"measurement": "efflux ratio", "setting": "[2]", "result": 1.7}, {"measurement": "CYP2C19 % inhibition at max conc", "setting": "CYP2C19", "result": "nmi"}, {"measurement": "CYP2C9 % inhibition at max conc", "setting": "CYP2C9", "result": "nmi"}]}
